Reference: ChEMBL document CHEMBL2029314, “Discovery of HIV fusion inhibitors targeting gp41 using a comprehensive α-helix mimetic library” (Bioorg Med Chem Lett, 2012)
pKi: −log10 of the molar value.

Assay: Displacement of C18-Aib-lucifer yellow from HIV1 envelope glycoprotein gp41 Fe(env2.0)3 by fluorescence assay
Design: species or system Human immunodeficiency virus 1

Compound | pKi
CC(C)C[C@H](NC(=O)c1ccc(NC(=O)[C@@H](N)Cc2ccc(O)cc2)c(OCCc2c[nH]c3ccccc23)c1)C(=O)O | 5.89
COc1ccc(C[C@H](N)C(=O)Nc2ccc(C(=O)N[C@@H](CC(C)C)C(=O)O)cc2OCCc2c[nH]c3ccccc23)cc1 | 5.41
CC(C)C[C@H](NC(=O)c1ccc(NC(=O)[C@@H](N)Cc2c[nH]c3ccccc23)c(OCCc2c[nH]c3ccccc23)c1)C(=O)O | 5.89
